Laboratory results published in ChEMBL document CHEMBL1123735, “6-Methyl-6-azabicyclo[3.2.1]octan-3 alpha-ol 2,2-diphenylpropionate (azaprophen), a highly potent antimuscarinic agent” (J Med Chem, 1987).

Species on record: Cavia porcellus
Assay: Antimuscarinic activity was assayed for its ability to block the acetyl-choline induced contraction of the guinea pig ileum
Format: functional
Method in brief: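 Distal guinea pig ileum segments (2.5 cm) in oxygenated Krebs–Ringer (5% CO2/95% O2), 37 °C; isometric contractions at 1-g tension. ACh concentration–response curve, maximal response set 100%; antagonist block of ACh contraction expressed as K_B or pA2 from Schild plot.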

CN1CC2CC(OC(=O)C(C)(c3ccccc3)c3ccccc3)CC1C2 (stereo unspecified) [AZAPROPHEN]
Kb: 39 pM
